Source: patent EP4630114B1, “NEW CYANOPYRIDINE KHK INHIBITOR COMPOUNDS” (dated 2026)

By UniProt entry, the sequences of proteins in these tests, tags left out.
UniProt P50053, whole entry: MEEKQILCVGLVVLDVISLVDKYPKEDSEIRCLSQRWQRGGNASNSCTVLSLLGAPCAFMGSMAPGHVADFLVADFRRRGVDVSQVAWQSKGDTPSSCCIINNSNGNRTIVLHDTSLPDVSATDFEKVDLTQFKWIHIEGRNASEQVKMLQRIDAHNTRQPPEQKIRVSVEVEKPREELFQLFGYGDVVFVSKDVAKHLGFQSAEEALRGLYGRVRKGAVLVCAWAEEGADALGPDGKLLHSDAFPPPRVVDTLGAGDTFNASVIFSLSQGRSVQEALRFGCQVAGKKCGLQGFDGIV

Biological target: recombinant human KHK-C (Homo sapiens, UniProt P50053)
Assay: Human KHK-C inhibition assay (Assay A, ADP-GLO Kinase Assay)
Conditions: read-out: KHK inhibition assay (Assay A) IC50; His-tagged human KHK-C (1 µg/ml), 400 µM D-fructose, 200 µM ATP, 60 min at room temperature

Substance “({[3-({6-[cis-octahydropyrrolo[3,4-c]pyrrol-2-yl]-3-cyano-4-(trifluoromethyl)pyridin-2-yl}amino)-4-methylsulfanyl)phenyl]methoxy}(methyl)phosphinic acid” has an IC50 of 2.3 nM.

This is a selection: effects in other tests are not listed, and their absence says nothing.
